Test results reported in PubChem BioAssay (Tox21).
Several values for one entry are separate records, joined by “and”; a condition that tells them apart may be missing. Identical values can stand only once. Only a part is listed here, and it is no random draw. Inconclusive results are not listed. Activity calls are given as the source filed them. Unless noted, calls follow the shape of the dose curve; as a rule, active = well fitted curve in the direction sought with a large enough effect in the repeat runs; inconclusive = weak or mixed curves; inactive = no such curve, though single readings can be large; an effect the other way counts as inactive or inconclusive.

Protein sequences, listed by entry. Tags and fused reporters are not part of them.
UniProt P03372, whole entry: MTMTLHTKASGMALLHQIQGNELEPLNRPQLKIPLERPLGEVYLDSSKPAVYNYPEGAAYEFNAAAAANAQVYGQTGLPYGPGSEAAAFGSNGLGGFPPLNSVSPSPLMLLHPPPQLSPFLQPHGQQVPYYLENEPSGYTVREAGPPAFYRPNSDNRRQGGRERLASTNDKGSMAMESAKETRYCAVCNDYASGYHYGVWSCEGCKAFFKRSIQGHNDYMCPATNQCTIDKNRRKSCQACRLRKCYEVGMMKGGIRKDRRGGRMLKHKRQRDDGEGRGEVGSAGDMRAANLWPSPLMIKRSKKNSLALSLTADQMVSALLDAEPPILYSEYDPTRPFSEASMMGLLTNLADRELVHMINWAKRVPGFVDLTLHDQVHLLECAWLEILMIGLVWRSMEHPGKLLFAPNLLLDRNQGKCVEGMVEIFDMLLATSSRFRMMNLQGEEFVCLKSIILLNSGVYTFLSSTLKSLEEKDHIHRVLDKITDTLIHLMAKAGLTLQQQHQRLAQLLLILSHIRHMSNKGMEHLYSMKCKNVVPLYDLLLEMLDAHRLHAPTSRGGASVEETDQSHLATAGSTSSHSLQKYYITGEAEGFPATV
UniProt P11511, whole entry: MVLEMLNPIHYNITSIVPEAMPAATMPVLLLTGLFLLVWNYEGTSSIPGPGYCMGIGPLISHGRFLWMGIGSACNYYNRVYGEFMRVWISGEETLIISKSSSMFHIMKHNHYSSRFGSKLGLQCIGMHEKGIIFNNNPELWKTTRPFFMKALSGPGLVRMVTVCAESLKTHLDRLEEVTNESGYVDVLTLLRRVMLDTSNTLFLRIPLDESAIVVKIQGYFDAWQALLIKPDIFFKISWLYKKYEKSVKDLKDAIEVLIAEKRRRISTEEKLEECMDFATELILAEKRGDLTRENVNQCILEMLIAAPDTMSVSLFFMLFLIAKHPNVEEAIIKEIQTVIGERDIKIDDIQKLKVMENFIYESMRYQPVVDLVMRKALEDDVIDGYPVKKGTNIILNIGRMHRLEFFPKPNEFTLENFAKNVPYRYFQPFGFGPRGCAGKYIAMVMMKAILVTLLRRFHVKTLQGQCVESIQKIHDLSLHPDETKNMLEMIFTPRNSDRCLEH
UniProt P37231, whole entry: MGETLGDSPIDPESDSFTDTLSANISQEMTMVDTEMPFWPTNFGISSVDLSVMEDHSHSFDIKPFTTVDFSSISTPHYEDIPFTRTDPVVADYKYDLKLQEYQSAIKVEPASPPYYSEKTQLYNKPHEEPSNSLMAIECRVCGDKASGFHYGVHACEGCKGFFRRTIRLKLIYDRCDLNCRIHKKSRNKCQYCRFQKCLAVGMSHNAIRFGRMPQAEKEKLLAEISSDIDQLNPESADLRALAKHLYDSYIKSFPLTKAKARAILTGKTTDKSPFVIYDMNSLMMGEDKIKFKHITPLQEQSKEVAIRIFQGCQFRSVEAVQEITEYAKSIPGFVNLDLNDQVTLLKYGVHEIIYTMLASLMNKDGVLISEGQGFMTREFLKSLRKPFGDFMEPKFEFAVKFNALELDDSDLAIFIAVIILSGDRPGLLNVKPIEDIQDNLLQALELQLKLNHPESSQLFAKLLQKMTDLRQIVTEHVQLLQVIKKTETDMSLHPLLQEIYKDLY
UniProt P35869, whole entry: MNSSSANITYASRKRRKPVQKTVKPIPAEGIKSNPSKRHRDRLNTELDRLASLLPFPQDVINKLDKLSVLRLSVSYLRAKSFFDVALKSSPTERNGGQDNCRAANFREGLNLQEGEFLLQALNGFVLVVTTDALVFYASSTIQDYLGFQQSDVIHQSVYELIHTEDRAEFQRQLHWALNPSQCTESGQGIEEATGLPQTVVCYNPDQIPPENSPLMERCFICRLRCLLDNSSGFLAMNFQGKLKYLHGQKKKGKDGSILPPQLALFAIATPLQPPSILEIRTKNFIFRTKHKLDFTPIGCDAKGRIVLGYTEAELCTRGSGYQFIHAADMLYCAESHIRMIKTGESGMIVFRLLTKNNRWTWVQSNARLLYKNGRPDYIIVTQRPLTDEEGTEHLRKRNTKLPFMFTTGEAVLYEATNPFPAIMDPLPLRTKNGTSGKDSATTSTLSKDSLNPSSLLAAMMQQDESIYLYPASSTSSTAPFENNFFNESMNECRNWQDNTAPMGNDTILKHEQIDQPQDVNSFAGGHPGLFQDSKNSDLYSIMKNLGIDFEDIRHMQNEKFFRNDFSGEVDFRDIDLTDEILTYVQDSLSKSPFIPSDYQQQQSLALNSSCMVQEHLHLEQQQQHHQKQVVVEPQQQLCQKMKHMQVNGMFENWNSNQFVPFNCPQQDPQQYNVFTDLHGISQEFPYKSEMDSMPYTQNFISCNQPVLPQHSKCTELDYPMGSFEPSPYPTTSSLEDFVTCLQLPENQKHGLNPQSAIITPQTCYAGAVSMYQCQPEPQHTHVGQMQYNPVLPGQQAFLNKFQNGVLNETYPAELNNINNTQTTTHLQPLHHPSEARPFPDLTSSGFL
UniProt P10275, whole entry: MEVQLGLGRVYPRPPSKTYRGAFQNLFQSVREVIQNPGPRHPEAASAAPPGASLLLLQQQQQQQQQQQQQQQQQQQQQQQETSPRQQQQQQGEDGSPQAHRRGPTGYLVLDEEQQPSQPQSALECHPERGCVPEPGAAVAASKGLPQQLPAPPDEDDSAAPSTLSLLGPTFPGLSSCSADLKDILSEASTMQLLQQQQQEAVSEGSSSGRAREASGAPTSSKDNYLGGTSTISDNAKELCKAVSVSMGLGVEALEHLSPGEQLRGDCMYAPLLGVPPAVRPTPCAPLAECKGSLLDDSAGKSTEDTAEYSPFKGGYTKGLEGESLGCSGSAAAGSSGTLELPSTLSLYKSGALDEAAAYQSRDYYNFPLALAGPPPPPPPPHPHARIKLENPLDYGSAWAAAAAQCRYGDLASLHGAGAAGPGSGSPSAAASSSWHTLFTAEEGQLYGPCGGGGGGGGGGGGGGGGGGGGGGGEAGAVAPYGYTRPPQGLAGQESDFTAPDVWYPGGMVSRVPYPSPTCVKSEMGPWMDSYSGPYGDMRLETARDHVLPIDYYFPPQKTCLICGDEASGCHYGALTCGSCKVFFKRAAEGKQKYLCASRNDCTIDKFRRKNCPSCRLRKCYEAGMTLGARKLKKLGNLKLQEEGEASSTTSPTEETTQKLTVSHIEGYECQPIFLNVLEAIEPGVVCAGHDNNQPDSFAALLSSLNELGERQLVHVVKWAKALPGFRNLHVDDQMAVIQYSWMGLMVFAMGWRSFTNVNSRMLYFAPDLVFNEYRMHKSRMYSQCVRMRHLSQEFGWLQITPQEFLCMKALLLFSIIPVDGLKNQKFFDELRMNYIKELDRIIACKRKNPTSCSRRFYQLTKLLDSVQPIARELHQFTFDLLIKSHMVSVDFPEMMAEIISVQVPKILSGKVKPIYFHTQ

Tests used:
[1] = qHTS assay to identify small molecule antagonists of the androgen receptor (AR) signaling pathway using the MDA cell line - cell viability counter screen (AID 743041; also: nearly all actives have a fitted effect of over 45% in size); conditions: MDA-kb2 viability, CellTiter-Fluor, 16 h, cells co-treated with R1881 androgen agonist
Outline: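 Cytotoxicity counter screen: MDA-kb2 AR-luc cells, compound + R1881, 16 h, 37C, 0% CO2; CellTiter-Fluor added at 15.5 h, fluorescence read after 30 min.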

[2] = system: thyroid hormone receptor (rat, GH3 cells); assay: qHTS assay to identify small molecule agonists of the thyroid receptor (TR) signaling pathway (AID 743066; calls by dose curve); conditions: GH3.TRE-Luc cells, TR agonist luciferase, 24 h
[3] = biological target: Estrogen receptor (Homo sapiens) (UniProt P03372); assay: qHTS assay to identify small molecule antagonists of the estrogen receptor alpha (ER-alpha) signaling pathway (AID 743069; active = well fitted curve in the direction sought with a large enough effect in the signal ratio in the repeat runs, not every such curve was filed as active; the % refers to the signal ratio); conditions: HEK293 ER-alpha-UAS-bla, beta-lactamase ratio, antagonist mode
Outline: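 Beta-lactamase FRET fluorescence is read after 2 hr at room temperature with LiveBLAzer B/G substrate. Before that, ER-alpha-bla HEK293 cells sit 4 hr after plating, then receive compound plus 17beta-estradiol and incubate 18 hr at 37C.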

[4] = qHTS assay to identify small molecule antagonists of the estrogen receptor alpha (ER-alpha) signaling pathway - cell viability counter screen (AID 743074; calls by dose curve;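 also: HEK293 cells carrying ER-alpha-UAS-bla reporter stimulated with 17beta-estradiol; nearly all actives have a fitted effect of over 45% in size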); conditions: ERalpha-bla HEK293 viability, CellTiter-Glo luminescence, 18 h
[5] = biological target: Estrogen receptor (Homo sapiens) (UniProt P03372); assay: qHTS assay to identify small molecule agonists of the estrogen receptor alpha (ER-alpha) signaling pathway (AID 743075; calls by dose curve;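 also: HEK293 GripTite cells with ER-alpha and UAS-driven beta-lactamase reporter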); conditions: HEK293 ER-alpha-UAS-bla, beta-lactamase FRET ratio, 18 h
[6] = biological target: Estrogen receptor (Homo sapiens) (UniProt P03372); assay: qHTS assay to identify small molecule agonists of the estrogen receptor alpha (ER-alpha) signaling pathway using the BG1 cell line (AID 743079); also: nearly all actives have a fitted effect of over 20% in size
Aromatase (Homo sapiens) = Aromatase (Homo sapiens) (UniProt P11511); assay: qHTS assay to identify aromatase inhibitors (AID 743083); conditions: MCF-7 aro ERE, testosterone-driven ERE luciferase, 24 h; also: nearly all actives have a fitted effect of over 55% in size
[7] = qHTS assay to identify small molecule that activate the aryl hydrocarbon receptor (AhR) signaling pathway - cell viability counter screen (AID 743086);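 also: HepG2 liver cells carrying the AhR DRE luciferase reporter; nearly all actives have a fitted effect of over 45% in size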
Outline: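 HepG2-AhR-luc (HG2L7.5c1) cells, 4000/well, treated 24 h at 37 C with compound; viability measured as CellTiter-Fluor fluorescence after 30 min in the same wells as the luciferase read.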

[8] = biological target: Peroxisome proliferator-activated receptor gamma (Homo sapiens) (UniProt P37231); assay: qHTS assay to identify small molecule agonists of the peroxisome proliferator-activated receptor gamma (PPARg) signaling pathway (AID 743094; active = well fitted activation curve with a large enough effect in the signal ratio in the repeat runs, not every such curve was filed as active; the % refers to the signal ratio); conditions: HEK293H PPARg-UAS-bla, beta-lactamase FRET ratio, 17 h
Outline: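 Agonism was assessed in a beta-lactamase reporter system, HEK293H cells with a stably integrated UAS-bla construct under PPARg control; the 17 h treatment at 37C preceded a 1 h room-temperature FRET substrate read.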

[9] = qHTS assay to identify small molecule antagonists of the peroxisome proliferator-activated receptor gamma (PPARg) signaling pathway - cell viability counter screen (AID 743194); conditions: PPARg-bla HEK293H viability, CellTiter-Glo luminescence, 17 h, co-treated with 50 nM rosiglitazone; also: nearly all actives have a fitted effect of over 55% in size
Outline: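 Cytotoxicity counter screen in PPARg-bla HEK293H cells, same wells as reporter assay. Compounds plus 50 nM rosiglitazone (final) for 17 h at 37 C, then viability read by CellTiter-Glo luminescence.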

[10] = qHTS assay for identifying genotoxic compounds that show differential cytotoxicity against isogenic chicken DT40 cell lines with known DNA damage response pathways - Rad54/Ku70 mutant cell line (AID 743015); also: nearly all actives have a fitted effect of over 60% in size; also: potency is read from the fitted curve at half-maximal effect
[11] = qHTS assay to identify small molecule antagonists of the thyroid receptor (TR) signaling pathway (AID 743065); also: nearly all actives have a fitted effect of over 55% in size
Outline: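 GH3.TRE-Luc rat pituitary cells (two TREs driving luciferase) were dosed with compound, then stimulated with 1 nM T3 (final) for 23.5 h at 37 C. ONE-Glo luminescence was the read-out, with CellTiter-Fluor fluorescence as the cytotoxicity counter-screen.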

[12] = qHTS assay to identify small molecule antagonists of the estrogen receptor alpha (ER-alpha) signaling pathway using the BG1 cell line - cell viability counter screen (AID 743081);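 also: compound given together with 17beta-estradiol as the ER stimulus; nearly all actives have a fitted effect of over 45% in size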
[13] = qHTS assay to identify aromatase inhibitors - cell viability counter screen (AID 743084); conditions: MCF-7 aro ERE viability, CellTiter-Fluor, 24 h;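 also: cells stimulated with testosterone during compound exposure; nearly all actives have a fitted effect of over 55% in size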
[14] = biological target: Aryl hydrocarbon receptor (Homo sapiens) (UniProt P35869); assay: qHTS assay to identify small molecule that activate the aryl hydrocarbon receptor (AhR) signaling pathway (AID 743085); also: nearly all actives have a fitted effect of over 15% in size; also: potency is read from the fitted curve at half-maximal effect;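 as to activation: HG2L7.5c1 human HepG2 liver cells with stably integrated DRE-driven firefly reporter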
[15] = biological target: Androgen receptor (Homo sapiens) (UniProt P10275); assay: qHTS assay to identify small molecule agonists of the androgen receptor (AR) signaling pathway (AID 743036; active = well fitted activation curve with a large enough effect in the signal ratio in the repeat runs, with a control signal flat, not every such curve was filed as active; the % refers to the signal ratio); conditions: HEK293 AR-UAS-bla GripTite, beta-lactamase FRET ratio, 16 h; at 62.4 µM (top of the series) unless noted
[16] = biological target: Androgen receptor (Homo sapiens) (UniProt P10275); assay: qHTS assay to identify small molecule agonists of the androgen receptor (AR) signaling pathway using the MDA cell line (AID 743040; also: nearly all actives have a fitted effect of over 20% in size); conditions: MDA-kb2 AR-luc cells, MMTV luciferase, 16 h, active compounds read high; at 70.3 µM (top of the series) unless noted
[17] = qHTS assay to identify small molecule antagonists of the thyroid receptor (TR) signaling pathway - cell viability counter screen (AID 743064); also: nearly all actives have a fitted effect of over 50% in size
Outline: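 Rat GH3 pituitary tumor cells stably expressing two TR response elements driving luciferase were plated, rested 4 h, then dosed with library compounds and T3 (1 nM final). After 23.5 h at 37 °C, CellTiter-Fluor was added for 30 min and fluorescence recorded.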

[18] = biological target: Androgen receptor (Homo sapiens) (UniProt P10275); assay: qHTS assay to identify small molecule antagonists of the androgen receptor (AR) signaling pathway (AID 743035; active = well fitted inhibition curve with a large enough effect in the signal ratio in the repeat runs, not every such curve was filed as active; the % refers to the signal ratio); conditions: HEK293 AR-UAS-bla, R1881-stimulated, beta-lactamase FRET, 16 h; at 58.5 µM (top of the series) unless noted
[19] = biological target: Androgen receptor (Homo sapiens) (UniProt P10275); assay: qHTS assay to identify small molecule antagonists of the androgen receptor (AR) signaling pathway using the MDA cell line (AID 743042; also: nearly all actives have a fitted effect of over 55% in size); conditions: MDA-kb2 AR-luc, MMTV luciferase, R1881 antagonist, 16 h; at 70.3 µM (top of the series) unless noted
% is scaled to controls: 0 for no effect and ±100 for the full control effect.

Cc1ccc([N+](=O)[O-])c([N+](=O)[O-])c1
inactive: viability change, negative = cytotoxic ([1]; at 70.3 µM (top of the series)) -0.36% | activation ([2]; at 83.9 µM (top of the series)) -5.1% | activation ([2]; at 95.2 µM (top of the series)) -8.8% | activity, negative = inhibition ([3]; at 69.4 µM (top of the series)) 5.96% | activity, negative = inhibition ([3]; at 79.1 µM (top of the series)) -4.6% | activity, negative = cytotoxicity ([4]; at 69.4 µM (top of the series)) 5.28% | activity, negative = cytotoxicity ([4]; at 79.1 µM (top of the series)) -12.6% | activation ([5]; at 70.1 µM (top of the series)) 7.37% | activation ([5]; at 79.1 µM (top of the series)) 4.35% | Potency [6] | activity, negative = inhibition (Aromatase (Homo sapiens); at 70.3 µM (top of the series)) -4.55% | Potency [7] | activation ([8]; at 57 µM (top of the series)) 0.83% | activation ([8]; at 78.9 µM (top of the series)) 5.63% | activity change, negative = cytotoxicity ([9]; at 62.6 µM (top of the series)) -6.96%

CC(C)OP(=O)(F)OC(C)C
inactive: Potency [10] | viability change, negative = cytotoxic ([1]; at 70.3 µM (top of the series)) -2.27% | Potency [11] | activation ([2]; at 83.9 µM (top of the series)) -0.68% | activity, negative = inhibition ([3]; at 69.4 µM (top of the series)) -2.73% | activity, negative = cytotoxicity ([4]; at 69.4 µM (top of the series)) -1.74% | activation ([5]; at 70.1 µM (top of the series)) -2.24% | Potency [6] | Potency [12] | activity, negative = inhibition (Aromatase (Homo sapiens); at 70.3 µM (top of the series)) 2.56% | activity change, negative = cytotoxicity ([13]; at 70.3 µM (top of the series)) 5.84% | Potency [14] | Potency [7] | activation ([8]; at 57 µM (top of the series)) 2.89%

Cc1cccc([N+](=O)[O-])c1[N+](=O)[O-]
active: Potency [10] 49.3 µM | Potency [14] 36.4 µM
inactive: activation [15] 14.6% | activity change [16] 88.2% | activation ([2]; at 83.9 µM (top of the series)) -3.93% | activity, negative = inhibition (Aromatase (Homo sapiens); at 70.3 µM (top of the series)) 24.2%

C/C1=C2N=C(/C=C3N=C(/C(C)=C4\[N-][C@@](C)([C@@H]5N=C1[C@](C)(CCC(=O)NC[C@@H](C)OP(=O)([O-])O[C@H]1[C@@H](O)[C@@H](n6cnc7cc(C)c(C)cc76)O[C@@H]1CO)[C@H]5CC(N)=O)[C@@](C)(CC(N)=O)[C@@H]4CCC(N)=O)[C@@](C)(CC(N)=O)[C@@H]\3CCC(N)=O)C(C)(C)[C@@H]/2CCC(N)=O.[C-]#N.[Co+3]
inactive: Potency [10] | viability change, negative = cytotoxic ([1]; at 32.5 µM (top of the series)) -4.91% | Potency [17] | Potency [11] | activation ([2]; at 39.4 µM (top of the series)) -1.09% | activity, negative = cytotoxicity ([4]; at 32.6 µM (top of the series)) 19.1% | activity, negative = inhibition (Aromatase (Homo sapiens); at 32.5 µM (top of the series)) -1.17% | activity change, negative = cytotoxicity ([13]; at 32.5 µM (top of the series)) -2.75% | Potency [14] | Potency [7] | activation ([8]; at 26.2 µM (top of the series)) 3.91% | activity change, negative = cytotoxicity ([9]; at 62.6 µM (top of the series)) 14%

CP(=O)(O)OCCC[Si](O)(O)O
inactive: Potency [10] | viability change, negative = cytotoxic ([1]; at 70.3 µM (top of the series)) 1.15% | Potency [17] | Potency [11] | activation ([2]; at 83.9 µM (top of the series)) 0.246% | activity, negative = inhibition ([3]; at 69.4 µM (top of the series)) 4.61% | activity, negative = cytotoxicity ([4]; at 69.4 µM (top of the series)) 23.4% | activation ([5]; at 70.1 µM (top of the series)) 0.669% | Potency [6] | Potency [12] | activity, negative = inhibition (Aromatase (Homo sapiens); at 70.3 µM (top of the series)) 14.1% | activity change, negative = cytotoxicity ([13]; at 70.3 µM (top of the series)) 1.25% | Potency [7] | activation ([8]; at 57 µM (top of the series)) 0.0167% | activity change, negative = cytotoxicity ([9]; at 62.6 µM (top of the series)) 1.09%

[NH4+].[O-][Cl+3]([O-])([O-])[O-]
inactive: Potency [10] | viability change, negative = cytotoxic ([1]; at 70.3 µM (top of the series)) 19.7% | viability change, negative = cytotoxic ([1]; at 95 µM (top of the series)) 0.943% | Potency [17] | activity, negative = cytotoxicity ([4]; at 69.4 µM (top of the series)) -28.9% | activity, negative = cytotoxicity ([4]; at 79.1 µM (top of the series)) 20.7% | Potency [12] | activity, negative = inhibition (Aromatase (Homo sapiens); at 70.3 µM (top of the series)) 25.7% | activity, negative = inhibition (Aromatase (Homo sapiens); at 95 µM (top of the series)) 5.11% | activity change, negative = cytotoxicity ([13]; at 70.3 µM (top of the series)) 9.25% | activity change, negative = cytotoxicity ([13]; at 95 µM (top of the series)) 6.95% | Potency [7] | activation ([8]; at 57 µM (top of the series)) 1.41% | activation ([8]; at 78.9 µM (top of the series)) -1.79% | activity change, negative = cytotoxicity ([9]; at 62.6 µM (top of the series)) -25.3% | activity change, negative = cytotoxicity ([9]; at 81.1 µM (top of the series)) 26.5%

O=[N+]([O-])OCC(CO[N+](=O)[O-])(CO[N+](=O)[O-])CO[N+](=O)[O-]
inactive: activity change, negative = inhibition [18] 3.32% | activation [15] 8.68% and 0.29% | activity change [16] -3.6% and 0.609% | viability change, negative = cytotoxic ([1]; at 70.3 µM (top of the series)) -14.5% and 1.53% | activity change, negative = inhibition [19] -1.78% and 7.31% | Potency [17] | Potency [11] | activation ([2]; at 83.9 µM (top of the series)) 0.12% and 0.175% | activity, negative = inhibition ([3]; at 69.4 µM (top of the series)) -21.7% and -8.13% | activity, negative = cytotoxicity ([4]; at 69.4 µM (top of the series)) 12.7% and 28.6% | activation ([5]; at 70.1 µM (top of the series)) 4.15% and 6.09% | Potency [6] | Potency [12] | activity, negative = inhibition (Aromatase (Homo sapiens); at 70.3 µM (top of the series)) -11.6% and 14.4% | activity change, negative = cytotoxicity ([13]; at 70.3 µM (top of the series)) -4.68% and 3.53% | Potency [14] | Potency [7] | activation ([8]; at 57 µM (top of the series)) -2.9% | activity change, negative = cytotoxicity ([9]; at 62.6 µM (top of the series)) 5.64%
